Test results reported in ChEMBL document CHEMBL1125363, “Novel piperidine sigma receptor ligands as potential antipsychotic drugs” (J Med Chem, 1992).

Chains of the proteins cited; added tags and fusions are not shown.
UniProt P61168, whole entry: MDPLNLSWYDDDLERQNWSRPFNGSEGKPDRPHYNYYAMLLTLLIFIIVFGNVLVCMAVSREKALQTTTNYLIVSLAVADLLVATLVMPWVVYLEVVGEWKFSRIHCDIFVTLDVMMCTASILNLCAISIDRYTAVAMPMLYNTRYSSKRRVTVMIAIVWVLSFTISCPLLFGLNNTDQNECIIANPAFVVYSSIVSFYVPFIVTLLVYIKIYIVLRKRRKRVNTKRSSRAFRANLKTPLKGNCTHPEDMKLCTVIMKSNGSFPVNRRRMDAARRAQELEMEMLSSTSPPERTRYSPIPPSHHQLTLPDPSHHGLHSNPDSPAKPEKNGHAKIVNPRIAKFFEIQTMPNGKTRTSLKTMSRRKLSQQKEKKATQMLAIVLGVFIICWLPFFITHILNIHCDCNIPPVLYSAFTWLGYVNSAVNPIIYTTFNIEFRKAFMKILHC
UniProt O55242, whole entry: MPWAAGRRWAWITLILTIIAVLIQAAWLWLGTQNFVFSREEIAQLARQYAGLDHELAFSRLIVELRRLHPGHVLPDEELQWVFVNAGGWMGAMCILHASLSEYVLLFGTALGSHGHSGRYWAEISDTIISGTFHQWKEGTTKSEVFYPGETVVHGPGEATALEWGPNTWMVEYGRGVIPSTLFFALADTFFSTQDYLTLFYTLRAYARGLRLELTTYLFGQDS

Tests used:
D(2) dopamine receptor = D(2) dopamine receptor (Mus musculus, UniProt P61168); test: In vitro binding affinity towards dopamine receptor D2
[1] = biological target: Sigma non-opioid intracellular receptor 1 (Mus musculus, UniProt O55242); test: In vitro binding affinity for the mouse sigma opioid receptor

Structure (SMILES)	IC50 (D(2) dopamine receptor) [nM]	Ki [1] [nM]
Cl.Fc1ccc(COCC2CCN(Cc3ccc(Cl)cc3)CC2)cc1	488	
Cl.Fc1ccc(COCC2CCN(Cc3ccc4ccccc4c3)CC2)cc1		4
O=C(CCCN1CCC(C(=O)Cc2ccc(F)cc2)CC1)c1ccc(F)cc1	55	
